This note sets out measurements from patent publication US9028810B2, “Composition for inducing migration of neural stem cells containing periostin as effective ingredient” (Ajou University Industry—Academic Cooperations Foundatin, priority 2010, dated 2015).

The test system of the test is neural stem cells. The test is described as follows: In vitro migration assay using ERK pathway and CDK5 pathway inhibitors. In kind it is cell-based, human. The following applies: 20 nM inhibitor, 12 hours. An excerpt:
It has been reported that, in the development of the central nervous system, neural stem cells migrate from the subventricular zone to cortex through radial glial cells using the ERK (extracellular signal regulated kinase) and CDK5 signaling pathways, and in the neuronal migration, DCX participated in nucleus translocation, neucleokinesis (Niethammer et al., 2000).
Cultured neural stem cells were detached with 0.05% trypsin, washed with DMEM medium and re-suspended in DMEM medium, after which 5×10^4 cells were inoculated into an upper chamber (Costar Transwell) in 200 μl of 10% FBS-containing DMEM medium.
After 12 hours, in order to determine the number of cells that migrated from the upper chamber through a 8-μm porous polycarbonate membrane to the lower portion of the membrane in response to the stimulation of the lower chamber, the migrated neural stem cells were stained with hematoxylin & eosin and counted.

Regarding `CC[C@H](CO)Nc1nc(NCc2ccccc2)c2ncn(C(C)C)c2n1` [roscovitine], the “migration of neural stem cells in control group not treated with periostin” value is “inhibited”.
